These results are taken from US8383617B2, “Treatment of protein aggregation diseases” (priority 2007, dated 2013).

Sequences of proteins named here, by UniProt entry; tags and fusion partners are left off. Residues count along the entry.
UniProt P05067, 672-711: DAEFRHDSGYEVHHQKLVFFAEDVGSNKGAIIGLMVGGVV

The assay concerns the target Synthetic beta-amyloid peptide (Homo sapiens, UniProt P05067). The assay can be described thus: PAGE and silver staining of aggregation reactions incubated with compounds. It counts as biochemical.

On to `OCCN1CCN(CCCN2c3ccccc3Sc3ccc(C(F)(F)F)cc32)CC1` [Fluphenazine, fluphenazine], for which the “inhibition of amyloid aggregation by PAGE and silver staining” value is “inhibit the aggregation of the amyloid”.
